# Source: article PMC6443668, “Chiral phenoxyacetic acid analogues inhibit colon cancer cell proliferation acting as PPARγ partial agonists” (Scientific Reports, 2019)
# Amino acid sequences for entries named in this document (tags omitted). Residues count along the entry.
# UniProt P37231, 29-505: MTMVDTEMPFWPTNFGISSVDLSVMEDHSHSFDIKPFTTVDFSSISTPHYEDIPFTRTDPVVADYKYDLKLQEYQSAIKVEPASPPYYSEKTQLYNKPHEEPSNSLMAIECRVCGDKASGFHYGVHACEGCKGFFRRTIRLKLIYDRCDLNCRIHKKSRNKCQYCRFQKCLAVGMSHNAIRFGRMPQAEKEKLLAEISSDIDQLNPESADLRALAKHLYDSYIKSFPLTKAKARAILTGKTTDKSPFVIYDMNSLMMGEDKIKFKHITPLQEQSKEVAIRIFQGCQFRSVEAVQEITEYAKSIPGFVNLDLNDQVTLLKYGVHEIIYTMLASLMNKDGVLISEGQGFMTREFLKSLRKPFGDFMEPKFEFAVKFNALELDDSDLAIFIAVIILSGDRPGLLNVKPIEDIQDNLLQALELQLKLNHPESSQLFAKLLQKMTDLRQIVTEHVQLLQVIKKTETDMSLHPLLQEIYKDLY
# Several values for one entry are separate records, joined by “and”; a condition that tells them apart may be missing. Equal values may be shown once.
# Key:
# β-catenin = assay: Western blotting of β-catenin in HT-29 cells; conditions: 10 µM, 48 hs
# p21^waf1/cip1 [1] = assay: Western blotting of p21waf1/cip1 in parental RKO cells (no endogenous PPARG); conditions: 10 µM, 48 hs
# cyclin D1 = assay: Western blotting of cyclin D1 in HT-29 cells; conditions: 10 µM, 48 hs
# c-Myc = assay: Western blotting of c-Myc in HT-29 cells; conditions: 10 µM, 48 hs
# β-catenin/TCF pathway = assay: Top-FLASH reporter luciferase assay in LiCl-induced HEK-293 cells; type: cell-based; conditions: HEK-293, Top-FLASH, 20 mM LiCl plus 1 µM compound, 24 hs, relative to LiCl alone
# Description: Figure 2 Effects of RGZ, (R,S)-3, (S)-3 and (R,S)-7 on the expression of different protein markers. Proliferating HT-29 cells were treated for 48 hs with 10 µM of the indicated compounds. Specific antibodies against cyclin D1 (A), c-Myc (B), β-catenin (C) and PPARγ (D) respectively, were used in Western blotting analysis. An anti-β-actin antibody was used as a control for protein loading. The graphs of (A) and (B) represent the means ± SD of three independent experiments. **p ≤ 0.01, ***p ≤ 0.005 compared to the control. The bar graphs of (C,D) are the means ± SD of three independent experiments. *p ≤ 0.05 compared to the control. (E) Top-FLASH luciferase assay performed in HEK-293 cells transiently transfected with the Top-FLASH reporter plasmid and exposed to 20 mM LiCl alone or in combination with 1 µM RGZ, (R,S)-3, (S)-3, (R,S)-7 or the vehicle alone (DMSO) for 24 hs is shown. Luciferase activity is reported as fold induction after normalization to β-galactosidase activity used as control of transfection efficiency. […]
# The Top-FLASH reporter plasmid containing three copies of TCF binding sites was transiently transfected into HEK293 cells with Lipofectamine 2000 (Invitrogen, Carlsbad, CA, USA) in 24-well plates. […] Luciferase activity was measured after 24 h of compounds treatment and normalized to β-galactosidase. […]
# p21^waf1/cip1 [2] = assay: Western blotting of p21waf1/cip1 in RKO cells stably transfected with PPARG1; conditions: RKO clone expressing exogenous PPARγ1, 10 µM, 48 hs
# HT-29 cells [3] = assay: Annexin V-FITC / propidium iodide apoptosis flow cytometry in HT-29 cells; type: cell-based, human; conditions: 10 µM, 48 hs
# Description: To evaluate whether the cell cycle arrest induced by our compounds was accompanied by induction of cell death, we treated HT-29 cells with 10 μM RGZ, (R,S)-3, (S)-3 and (R,S)-7 for 48 hs and then stained with Annexin V-FITC and propidium iodide followed by flow cytometry analysis (Fig. 3A,B). All compounds stimulated apoptosis; the percentage of Annexin^+/propidium^+ cells was higher in (S)-3 than RGZ, (R,S)-3 and (R,S)-7 treated cells. Accordingly, we surveyed the levels of caspase 3, one of the effectors of the process, and found a significant reduction of the precursor and a concomitant increase of the cleaved form with (S)-3 exerting the strongest effect (Fig. 3C).
# Figure 3 Effects of RGZ, (R,S)-3, (S)-3 and (R,S)-7 on HT-29 cell apoptosis and caspase-3 activation analysis. (A) HT-29 cells were treated for 48 hs with 10 µM of RGZ, (R,S)-3, (S)-3 and (R,S)-7, respectively, stained by Annexin V-propidium iodide and analyzed by flow cytometry. (B) Early (Ann+/PI−) and late (Ann+/PI+) apoptotic cell populations were evaluated and reported in the graphic representation. […] (C) Total protein extracts from proliferating HT-29 cells, treated or not with 10 µM RGZ, (R,S)-3, (S)-3 and (R,S)-7, respectively, for 48 hs were analyzed by Western blotting with an anti-caspase 3 antibody. […]
# p21^waf1/cip1 [4] = assay: Western blotting of p21waf1/cip1 in HT-29 cells; type: cell-based, human; conditions: 10 µM, 48 hs
# Description: Figure 1 Cell cycle analysis of HT-29 cells treated with increasing amounts of RGZ, (R,S)-3, (S)-3 or (R,S)-7 and p21^waf1/cip1 expression evaluation by Western blotting. (A) Flow cytometric assay carried out on HT-29 cells treated or not with the indicated compounds at different concentrations ranging from 1 to 25 µM for 48 hs. HT-29 cells exposed or not to these compounds were harvested, permeabilized and stained with propidium iodide and analyzed by FACS. Data are means ± SD of two independent experiments. *p ≤ 0.05, **p ≤ 0.01 compared to the control. (B) Proliferating HT-29 cells were treated or not for 48 hs with 10 µM of the indicated compounds. Protein extracts were prepared and assessed for p21^waf1/cip1 expression in Western blotting analysis. β-Actin was used for protein load normalization. The bar graphs are the mean ± SD of three independent experiments. **p ≤ 0.01 compared to the control.
# To better characterize the growth inhibition elicited by (R,S)-3, (S)-3 and (R,S)-7, we examined changes in the expression of proteins involved in cell cycle control (Figs 1B and 2A). To this goal, protein extracts from proliferating HT-29 cells, treated for 48 hs with the vehicle alone (DMSO), or 10 μM RGZ, (R,S)-3, (S)-3 or (R,S)-7, respectively, were analyzed by Western blotting for p21^waf1/cip1 expression. […]
# PPARγ1 = PPARγ1 (Homo sapiens, UniProt P37231); assay: PPRE-Luciferase reporter transactivation in HEK293 cells expressing PPARγ1; type: cell-based
# HT-29 cells [5] = assay: Cell cycle analysis by flow cytometry (propidium iodide) in HT-29 cells; conditions: 1 to 25 µM, 48 hs, FACS
# HT-29 cells [6] = assay: Viability / proliferation assay in HT-29 cells (cell counting)
compound,measurement,setting,value
O=C(O)C(CCCc1ccc(Cl)cc1)Oc1ccc(Cl)cc1 (racemic),β-catenin protein level,β-catenin,reduction
same,p21waf1/cip1 expression,p21^waf1/cip1 [1],no p21^waf1/cip1 variations
same,cyclin D1 protein level,cyclin D1,reduction
same,c-Myc protein level,c-Myc,reduction
same,Luciferase activity remaining on co-treatment with LiCl,β-catenin/TCF pathway,80%
same,p21waf1/cip1 expression,p21^waf1/cip1 [2],induced accumulation
same,Apoptosis induction,HT-29 cells [3],stimulated apoptosis
same,p21waf1/cip1 protein expression,p21^waf1/cip1 [4],slight
same,Efficacy,PPARγ1; PPARγ transactivation with respect to the full agonist RGZ taken as 100%,65% and 65 ± 2.4%
same,EC50,"PPARγ1; PPARγ transactivation, PPRE-Luc reporter, HEK293 expressing PPARγ1, 24 hs treatment",0.35 µM
same,Cell cycle changes,HT-29 cells [5],dosage-dependent increase of the G0/G1 cell population
same,IC50,"HT-29 cells [6]; read-out: Proliferation IC50, concentration range 1 to 25 µM",7.3 µM
same,Residual viability,HT-29 cells [6]; remaining surviving cells,47 ± 2.3%
